# PglD DTNB = inhibitors of Campylobacter jejuni PglD acetyltransferase | inhibition, % at 12.5 µM | AID 602405 | purified PglD enzyme, DTNB colorimetric CoA detection | 360,000 compounds, 0.098% hits; in the data active = inhibition above about 16%, passing the limit was not always enough
# Vif imaging = blocks HIV Vif function; HEK293T cells, Vif self-association by quenched fluorescence, imaging, 24 h; inhibition, % at 7.49 µM; 340,000 compounds, 0.35% hits; AID 602346; in the data active = inhibition above about 50%, passing the limit was not always enough
# Yeast UUG start = alters start codon recognition fidelity in yeast | S. cerevisiae UUG-firefly luciferase reporter, luminescence/redox ratio | activity score, % at 18.7 µM | hit rate 0.13% among 350,000 | AID 602363;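 active means replicate mean at a twofold rise or more, about +100% in these data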;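 further: firefly luciferase made from a UUG start codon reports start codon fidelity; reporter light over untreated wells divided by growth signal over untreated wells; some hits fall short of that in this replicate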
# CAL PDZ FP-1 = blocks peptide binding to human CAL PDZ domain. inhibition, % at 20 µM. purified CAL PDZ, TMR-peptide fluorescence polarization, 1 h. AID 504414. Q9HD26. 330,000 compounds, 0.02% hits;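 active = highest replicate inhibition of at least 40%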
#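 System: purified tagged CAL PDZ domain construct (CerCALP). Schedule: 1 h incubation at room temperature before polarization reading. Medium: 25 mM sodium phosphate pH 7.4, 150 mM NaCl, TCEP, IgG, Thesit. Read-out: percent inhibition from loss of millipolarization. Measured by: FP readout, S and P plane fluorescence. Probe or stimulus: fluorescent TMR peptide probe.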
# CAL PDZ FP-2 = inhibitors of human CAL PDZ peptide binding. purified CAL PDZ, TMR-peptide fluorescence polarization, 1 h. inhibition, % at 24.9 µM. 300,000 compounds, 0.92% hits. Q9HD26;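 active = mean inhibition of at least 30% with at least half of replicates also reaching 30%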
# ARNT TACC3 PPI = disruptors of human ARNT/TACC3 interaction | AlphaScreen His-ARNT PAS-B/GST-TACC3 binding, luminescence; TACC3 fragment carries E629A point mutation | inhibition, % at 9.99 µM | AID 623870 | Q9Y6A5 | 390,000 compounds, 0.66% hits;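 active = mean inhibition of replicates at least 50% and at least half of replicates each reaching 50%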
# ARNT Alpha ctr-1 = counter-screen for ARNT/TACC3 inhibitors: AlphaScreen artifacts; shares compounds with ARNT TACC3 PPI; His-ARNT PASB-GST AlphaScreen artifact counter-screen, luminescence; AC50, µM (titrated, usually from 68 µM); 1,200 compounds, 50% hits;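 active = every separate test run was called active for a drop in luminescence, with AC50 within twice the top valid dose, actives reach about 71 µM in these data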
# ARNT Alpha ctr-2 = AlphaScreen artifact flagged for ARNT-TACC3 inhibitors | shares compounds with ARNT TACC3 PPI | 45 compounds, 70% hits | Dual-tagged His-ARNT PASB-GST AlphaScreen artifact counter-screen | AID 720564 | AC50, µM;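 active = luminescence drop, with half-maximal potency fitted within twice the sample's top valid dose, cut at about 70 µM in these data; inactive = the rest, including signal moving the wrong way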
# Numbers stand for hits; 0 = inactive; - = no result. Shown are actives, neighbours in structure and some others; about 1.6% of the full set was active somewhere.
SMILES,PglD DTNB,Vif imaging,Yeast UUG start,CAL PDZ FP-1,CAL PDZ FP-2,ARNT TACC3 PPI,ARNT Alpha ctr-1,others
CN1CCN(/N=C/c2nc(-c3ccccc3Cl)n3ccccc23)CC1,-,0,-,0,0,35,0,
O=C(N/N=C/c1c(Cl)nc2ccccn2c1=O)c1cccnc1,0,0,0,0,0,57,0,
O=C(N/N=C/c1cc2c(cc1Cl)OCO2)c1ccncc1,-,0,-,0,0,0,-,
Cc1nn(-c2ccccc2)c(Cl)c1/C=N/NC(=O)c1cccnc1,-,0,-,0,0,0,-,
O=C(N/N=C/c1cc(Cl)ccc1O)c1cccnc1,0,0,0,0,0,58,60µM,
O=C(N/N=C/c1cc(Cl)cc(Cl)c1O)c1ccncc1,0,0,0,0,0,54,34µM,
CCC(=O)N(C)C[C@@H]1Oc2ncc(C#Cc3ccncc3)cc2C(=O)N([C@H](C)CO)C[C@@H]1C,0,-,0,-,-,0,-,
N[C@@H]1CC[C@@H](CCn2cc(-c3ccccn3)nn2)O[C@H]1CO,0,-,-,-,-,76,3.8µM,
N[C@H]1CC[C@H](CCn2cc(-c3ccccn3)nn2)O[C@@H]1CO,0,-,-,-,-,77,5.3µM,
c1ccc(-c2cn(C[C@H]3CC[C@@H]([C@@H]4CC[C@H](Cn5cc(-c6ccccc6)nn5)O4)O3)nn2)cc1,0,0,0,0,0,0,-,
N[C@@H]1CC[C@@H](CCn2cc(-c3cccc(F)c3)nn2)O[C@H]1CO,0,-,0,-,-,0,-,
c1ccc(-c2cn(C[C@H]3CC[C@@H]([C@@H]4CC[C@H](Cn5cc(-c6ccccn6)nn5)O4)O3)nn2)nc1,0,0,0,0,0,66,11µM,
COc1ccccc1-c1cnc2c(c1)C(=O)N([C@H](C)CO)C[C@H](C)[C@H](CN(C)Cc1ccc(F)cc1)O2,0,-,0,-,-,0,-,
COc1ccc(NC(=O)N(C)C[C@H]2Oc3c(NC(=O)c4cnccn4)cccc3C(=O)N([C@@H](C)CO)C[C@@H]2C)cc1,0,-,0,-,-,0,-,
C[C@@H]1CN([C@@H](C)CO)C(=O)Cc2cc(NC(=O)Nc3cccc4ccccc34)ccc2O[C@H]1CN(C)C,0,-,0,-,-,0,-,
COc1ccccc1-c1ccc([C@H]2[C@@H](CO)N3CCCCN(Cc4ccncc4)C[C@H]23)cc1,0,-,0,-,-,0,-,
COC(=O)Cc1cc(=O)n(-c2nc3ccccc3[nH]2)[nH]1,-,0,-,0,-,62,60µM,ARNT Alpha ctr-2=38
COC(=O)Cc1[nH]n(-c2nc3ccccc3s2)c(=O)c1C(C)=O,0,0,0,0,0,0,-,
Cn1c(-c2ccccc2)cnc1NCc1ccc(F)cc1,0,0,0,0,-,0,-,
CNc1nc(-c2ccccn2)nnc1-c1ccccc1,0,0,0,0,0,64,3µM,
Cn1c(-c2ccccc2)cnc1Nc1nc(-c2ccccn2)nnc1-c1ccccc1,-,-,-,-,-,-,2.6µM,
CC(Nc1nc(-c2ccccn2)nnc1-c1ccccc1)c1ccccc1 (stereo not drawn),-,-,-,-,-,-,2.3µM,
c1ccc(-c2nnc(-c3ccccn3)nc2NC2CCCCC2)cc1,0,0,0,0,0,-,-,
c1ccc(-c2nnc(Nc3nc(-c4ccccn4)nnc3-c3ccccc3)s2)cc1,-,-,-,-,-,-,4.1µM,
C[C@H](CO)N1C[C@H](C)[C@H](CN(C)Cc2ccc(C(=O)Nc3ccccc3N)cc2)Oc2ccc(NS(=O)(=O)c3cccs3)cc2C1=O,0,-,0,-,-,0,-,
SMILES,PglD DTNB,Vif imaging,Yeast UUG start,CAL PDZ FP-1,CAL PDZ FP-2,ARNT TACC3 PPI,ARNT Alpha ctr-1,others
Cc1ccc(S(=O)(=O)N(C)C[C@H]2OCCCC[C@@H](C)Oc3ccc(NC(=O)CCCN(C)C)cc3C(=O)N([C@@H](C)CO)C[C@H]2C)cc1,0,-,0,-,-,0,-,
CO[C@H]1CN(C)C(=O)c2ccc(NC(=O)c3ccc(F)cc3)cc2OC[C@@H](C)N(C)C[C@H]1C,-,-,0,-,-,-,-,
O=C(C[C@@H]1CC[C@@H]2[C@H](COC[C@H](O)CN2Cc2cc(F)ccc2F)O1)NCc1ccc(Cl)cc1,0,-,-,-,-,0,-,
CCOc1ccccc1/C=N/NC(=O)c1cccc(S(=O)(=O)N(CC)CC)c1,0,0,0,0,-,0,-,
COc1cccc(/C=N/Nc2ccnc(=O)[nH]2)c1O,0,0,0,-,0,57,60µM,
CCN(CC)S(=O)(=O)c1cccc(C(=O)N/N=C/c2ccc(O)c(O)c2O)c1,-,0,-,0,0,59,19µM,
CCN(CC)c1ccc(/C=N/NC(=O)c2ccc3nc[nH]c3c2)c(O)c1,0,0,0,0,0,55,41µM,
COc1cccc(/C=N/NC(=O)c2ccc3nc[nH]c3c2)c1O,0,0,0,0,0,63,0,
COc1cc(OC)c(OC)cc1/C=N/NC(=O)c1ccc2nc[nH]c2c1,-,0,-,0,0,0,-,
CN1/C(=N\O)c2cccc3cccc1c23,0,0,0,0,0,52,0,
CNC(=O)CN1C(=O)c2cccc3cccc1c23,0,0,0,-,0,0,-,
O=C(NCCN1CCCCC1)c1cc(-c2ccccc2)on1,-,-,-,-,-,-,0,
CC(C)(C)CCNC(=O)c1cc(-c2ccccc2)on1,-,-,-,-,-,-,68µM,
O=C(NCCCO)c1cc(-c2ccccc2)on1,-,-,-,-,-,-,0,
COc1cccc(OCc2cc(C(=O)NCC3CCCCC3)no2)c1,0,0,0,0,0,0,-,
O=C(NCC1CCCCC1)c1cc(-c2ccccc2)on1,-,-,-,-,-,-,0,
O=C(NCc1ccccn1)c1cc(-c2ccccc2)on1,0,-,0,0,0,0,-,
O=C(NCCN1CCOCC1)c1cc(-c2cccc(O)c2)on1,0,0,0,0,0,0,-,
O=C(C[C@H]1C[C@H]2c3cc(NC(=O)NC4CCCC4)ccc3O[C@H]2[C@@H](CO)O1)NCCN1CCCCC1,0,-,0,-,-,0,-,
C[C@H]1CN([C@@H](C)CO)C(=O)c2cc(-c3cccc(C#N)c3)cnc2O[C@@H]1CN(C)Cc1cncnc1,0,-,0,-,-,0,-,
CCCCNC(=O)c1cc(-c2ccccc2)on1,-,-,-,-,-,-,0,
Cc1cccc(CNC(=O)c2cc(-c3ccccc3)on2)c1,-,-,-,-,-,-,47µM,
O=C(NCc1cccs1)c1cc(-c2ccccc2)on1,0,0,0,0,0,0,-,
O=C(Nc1ccc(F)cc1)Nc1ccc2c(c1)[C@@H]1C[C@@H](CC(=O)N3CCOCC3)O[C@@H](CO)[C@@H]1O2,0,-,0,-,-,0,-,
C[C@@H]1CN([C@@H](C)CO)C(=O)c2cc(NC(=O)Cc3ccccc3)ccc2O[C@@H]1CN(C)S(=O)(=O)c1ccc(F)cc1,0,-,0,-,-,0,-,
O=C(CCN1C(=O)c2cccnc2C1=O)NC1CCCCCC1,0,0,0,0,0,59,0,
COc1ccc(NC(=O)N[C@@H]2C=C[C@@H](CC(=O)NC3CCCCC3)O[C@H]2CO)cc1,0,-,0,-,-,0,-,
Oc1cc(NCCN2CCOCC2)cc2cccnc12,0,0,0,0,0,59,11µM,

# Source: PubChem (Broad Institute)
